Measured values reported in patent US9586931B2 (Merck Sharp & Dohme Corp., priority 2012, dated 2017).

Molecular target: recombinant human GST-Syk (Homo sapiens, UniProt P43405)
Experiment: Homogeneous Time-Resolved Fluorescence (HTRF) assay for the recombinant human Syk enzyme
Conditions: read-out: rhSYK Activity IC50, recombinant human GST-Syk 5 pM, ATP 25 μM, 10-dose titration 10 μM to 0.508 nM

| SMILES | IC50 (tested form: formic acid salt) [nM] | IC50 [nM] |
| --- | --- | --- |
| CCc1ccnc(Nc2cc(C)cc(-c3cn(C(C)c4ccc(C(=O)O)cc4)nn3)c2)c1 (centres unmarked) | 11.2 | – |
| Cc1cc(Nc2nccc(C(F)F)n2)cc(-c2cn(C3CCCC(O)C3(C)O)nn2)c1 (single isomer, unassigned) [29.4] | – | 6.6 |
| Cc1cc(Nc2nccc(C(F)F)n2)cc(-c2cn(C3CCCC(O)C3(C)O)nn2)c1 (single isomer, unassigned) [29.5] | – | 22.6 |
| Cc1cc(Nc2nccc(C(F)F)n2)cc(-c2cn(C3CCCC(O)C3(C)O)nn2)c1 (single isomer, unassigned) [29.6] | – | 10.3 |
| Cc1cc(Nc2nccc(C(F)F)n2)cc(-c2cn(C3CCCC(O)C3(C)O)nn2)c1 (single isomer, unassigned) [29.7] | – | 11.6 |

Where two headings read alike, the source gives them in different places.
